ChEMBL document CHEMBL1136784, “Synthesis and biological evaluation of 14-alkoxymorphinans. 18. N-substituted 14-phenylpropyloxymorphinan-6-ones with unanticipated agonist properties: extending the scope of common structure-activity relationships” (J Med Chem, 2003)

Test: Selectivity ratio was determined
Parameters: reference not given here

SMILES: O=C1CC[C@@]2(OCCCc3ccccc3)[C@H]3Cc4ccc(O)c5c4[C@@]2(CCN3CCc2ccccc2)[C@H]1O5
- Ratio: 0.55 and 1.14

“And” between values parts separate entries of the source, which are not always exact repeats. Equal entries are not always repeated.
